Laboratory results as given in article PMC8470279, “Biosynthesis of the Novel Endogenous 15-Lipoxygenase Metabolites N-13-Hydroxy-octodecadienoyl-ethanolamine and 13-Hydroxy-octodecadienoyl-glycerol by Human Neutrophils and Eosinophils” (Cells, 2021).
pEC50, pIC50, pKi: −log10 of the molar value.

Amino acid sequences for entries named in this document (tags omitted).
UniProt P21554, whole entry: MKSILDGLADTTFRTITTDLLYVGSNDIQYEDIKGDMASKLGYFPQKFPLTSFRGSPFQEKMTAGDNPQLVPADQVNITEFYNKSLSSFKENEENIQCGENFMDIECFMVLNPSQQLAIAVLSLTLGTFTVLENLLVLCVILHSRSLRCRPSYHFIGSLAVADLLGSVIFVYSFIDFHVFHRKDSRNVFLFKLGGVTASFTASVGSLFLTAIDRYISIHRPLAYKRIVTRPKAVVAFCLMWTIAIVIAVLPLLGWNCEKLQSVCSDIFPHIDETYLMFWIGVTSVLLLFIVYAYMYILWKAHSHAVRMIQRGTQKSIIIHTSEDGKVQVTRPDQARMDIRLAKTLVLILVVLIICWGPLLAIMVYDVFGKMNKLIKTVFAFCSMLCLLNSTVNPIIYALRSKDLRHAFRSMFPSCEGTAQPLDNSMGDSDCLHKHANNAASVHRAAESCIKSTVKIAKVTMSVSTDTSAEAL
UniProt P34972, whole entry: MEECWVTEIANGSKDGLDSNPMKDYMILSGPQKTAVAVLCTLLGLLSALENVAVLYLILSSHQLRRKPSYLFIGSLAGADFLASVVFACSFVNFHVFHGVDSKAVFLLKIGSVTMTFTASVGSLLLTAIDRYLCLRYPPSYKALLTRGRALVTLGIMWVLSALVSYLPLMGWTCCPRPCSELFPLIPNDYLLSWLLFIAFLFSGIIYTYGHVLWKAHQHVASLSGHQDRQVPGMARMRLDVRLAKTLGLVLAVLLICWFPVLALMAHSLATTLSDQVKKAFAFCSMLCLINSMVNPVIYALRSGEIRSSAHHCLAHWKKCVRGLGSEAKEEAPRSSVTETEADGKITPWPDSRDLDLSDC
UniProt Q8NER1, whole entry: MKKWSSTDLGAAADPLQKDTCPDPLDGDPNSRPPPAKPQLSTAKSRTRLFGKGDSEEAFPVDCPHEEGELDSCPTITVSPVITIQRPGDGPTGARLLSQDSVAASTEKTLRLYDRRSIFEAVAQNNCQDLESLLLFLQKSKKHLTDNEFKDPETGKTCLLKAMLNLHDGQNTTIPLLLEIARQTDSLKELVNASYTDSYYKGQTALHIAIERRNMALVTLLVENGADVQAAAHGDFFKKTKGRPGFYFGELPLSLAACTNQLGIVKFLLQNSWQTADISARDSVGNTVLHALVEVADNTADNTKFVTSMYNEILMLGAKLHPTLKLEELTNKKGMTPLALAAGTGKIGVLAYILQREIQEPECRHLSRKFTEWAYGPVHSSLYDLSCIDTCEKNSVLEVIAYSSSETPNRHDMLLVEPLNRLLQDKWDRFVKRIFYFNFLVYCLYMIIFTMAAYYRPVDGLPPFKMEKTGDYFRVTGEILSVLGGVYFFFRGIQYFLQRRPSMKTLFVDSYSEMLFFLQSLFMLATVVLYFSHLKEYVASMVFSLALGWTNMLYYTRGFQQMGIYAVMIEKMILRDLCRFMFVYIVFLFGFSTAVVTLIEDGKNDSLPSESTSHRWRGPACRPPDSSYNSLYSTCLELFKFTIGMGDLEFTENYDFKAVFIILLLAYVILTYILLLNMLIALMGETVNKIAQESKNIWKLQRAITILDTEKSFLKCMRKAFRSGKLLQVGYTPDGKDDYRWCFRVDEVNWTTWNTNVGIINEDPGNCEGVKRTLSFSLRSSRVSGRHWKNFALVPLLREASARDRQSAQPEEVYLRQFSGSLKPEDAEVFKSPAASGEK

Columns and labels:
Conditions in all cases: mean ± SD
[1] = target: human recombinant CB1 receptor (Homo sapiens, UniProt P21554); test: CB1 receptor binding assay
Method: (§1) The analysis of CB1 and CB2 receptor binding was performed exactly as described in [21].

[2] = target: human recombinant CB2 receptor (Homo sapiens, UniProt P34972); test: CB2 receptor binding assay
Method: as §1

human recombinant TRPV1 = human recombinant TRPV1 (Homo sapiens, UniProt Q8NER1); test: TRPV1-mediated intracellular calcium elevation; format: cell-based
Description: These assays we preformed exactly as described in [21].

In the case of `CCCCC/C=C\C/C=C\C/C=C\C/C=C\CCCC(=O)OCC(O)CO` (centres unmarked), the “CB1 Receptor Max Tested (% Displacement)” value ([1]; 10 µM) was 10 µM (90.4 ± 1.3) %, the pIC50 ([1]; read-out: CB1 Receptor IC50) was 5.88 and the pKi ([1]; read-out: CB1 Receptor Ki) was 6.82. The “CB2 Receptor Max Tested (% Displacement)” value ([2]; 10 µM) was 10 µM (75.52 ± 2.4) %, the pIC50 ([2]; read-out: CB2 Receptor IC50) was 5.99 and the “Efficacy (% Max Response)” value (human recombinant TRPV1; intracellular calcium elevation) was 58.9 ± 1.2%. For the same compound, the pIC50 (human recombinant TRPV1; read-out: Desensibilization (IC50), assayed using 100 nM capsaicin) was 5.96 and the pEC50 (human recombinant TRPV1; read-out: Potency (EC50), intracellular calcium elevation) was 6.41.
